Reference: PMC8463443 (Acta Pharmaceutica Sinica. B, 2021)

Tested on: monkey kidney cell line Vero E6
Assay: Cell viability, Vero E6
Format: cell-based
Conditions: monkey kidney cell line Vero E6 (Fig. S6)

CC(C)C[C@H](NC(=O)[C@H](CC(N)=O)NC(=O)[C@H](Cc1c[nH]c2ccccc12)NC(=O)[C@H](Cc1ccc(O)cc1)NC(=O)[C@H](CCC(=O)O)NC(=O)[C@H](C)NC(=O)[C@H](Cc1ccccc1)NC(=O)[C@H](CO)NC(=O)[C@@H](NC(=O)[C@@H](N)CCCCN)[C@@H](C)O)C(=O)N[C@@H](CC(C)C)C(=O)N[C@@H](CO)C(=O)N1CCC[C@H]1C(=O)N[C@@H](CCCCN)C(=O)O [PMI-2K]
effect on viability of Vero E6: neither PMI-2K nor M3-2K had any effect on the viability
